Measurements reported in US20230212549A1, “COMPOUNDS COMPRISING A […] LIGAND AND USE THEREOF” (priority 2021, published 2023).

Sequences of proteins named here, by UniProt entry; tags and fusion partners are left off. A change or cut given only in a name is not applied to a line headed by its entry. Residues count along the entry.
UniProt P40818: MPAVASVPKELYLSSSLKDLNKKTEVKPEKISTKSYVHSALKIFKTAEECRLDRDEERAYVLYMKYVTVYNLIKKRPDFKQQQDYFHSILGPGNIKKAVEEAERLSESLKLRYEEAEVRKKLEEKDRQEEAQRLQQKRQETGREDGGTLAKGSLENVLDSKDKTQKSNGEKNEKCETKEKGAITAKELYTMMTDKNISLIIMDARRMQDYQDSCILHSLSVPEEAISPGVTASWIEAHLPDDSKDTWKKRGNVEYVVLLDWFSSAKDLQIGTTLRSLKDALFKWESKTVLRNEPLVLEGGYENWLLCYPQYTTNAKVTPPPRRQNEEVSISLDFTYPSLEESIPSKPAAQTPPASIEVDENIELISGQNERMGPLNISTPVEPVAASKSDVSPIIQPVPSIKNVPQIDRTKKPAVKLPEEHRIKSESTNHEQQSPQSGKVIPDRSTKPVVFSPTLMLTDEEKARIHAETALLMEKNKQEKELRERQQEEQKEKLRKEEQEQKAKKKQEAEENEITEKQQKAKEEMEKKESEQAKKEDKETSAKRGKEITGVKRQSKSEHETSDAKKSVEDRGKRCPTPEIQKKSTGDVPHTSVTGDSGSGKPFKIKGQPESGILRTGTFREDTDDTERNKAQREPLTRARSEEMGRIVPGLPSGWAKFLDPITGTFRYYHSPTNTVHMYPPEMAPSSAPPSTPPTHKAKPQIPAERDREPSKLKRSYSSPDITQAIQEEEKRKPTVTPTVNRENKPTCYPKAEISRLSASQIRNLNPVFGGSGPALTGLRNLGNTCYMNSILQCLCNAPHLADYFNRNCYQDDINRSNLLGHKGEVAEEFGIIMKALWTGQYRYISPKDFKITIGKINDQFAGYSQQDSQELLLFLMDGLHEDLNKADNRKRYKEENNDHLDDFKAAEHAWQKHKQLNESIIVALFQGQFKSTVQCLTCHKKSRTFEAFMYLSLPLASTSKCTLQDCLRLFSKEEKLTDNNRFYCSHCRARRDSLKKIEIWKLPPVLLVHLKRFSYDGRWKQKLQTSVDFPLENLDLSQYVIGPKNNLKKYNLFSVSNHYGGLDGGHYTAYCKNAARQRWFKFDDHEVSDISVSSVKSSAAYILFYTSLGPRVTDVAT
UniProt O75604, 259-605 limits assumed: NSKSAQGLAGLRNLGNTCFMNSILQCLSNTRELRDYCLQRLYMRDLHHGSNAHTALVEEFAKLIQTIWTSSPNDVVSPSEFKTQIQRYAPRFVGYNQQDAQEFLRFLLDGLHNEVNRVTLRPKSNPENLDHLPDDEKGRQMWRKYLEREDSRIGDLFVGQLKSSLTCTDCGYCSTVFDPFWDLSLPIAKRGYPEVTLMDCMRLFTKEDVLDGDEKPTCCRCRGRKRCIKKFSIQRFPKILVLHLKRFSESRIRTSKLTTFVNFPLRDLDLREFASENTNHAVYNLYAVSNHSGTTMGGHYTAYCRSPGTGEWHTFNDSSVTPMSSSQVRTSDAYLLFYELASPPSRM
UniProt P45974: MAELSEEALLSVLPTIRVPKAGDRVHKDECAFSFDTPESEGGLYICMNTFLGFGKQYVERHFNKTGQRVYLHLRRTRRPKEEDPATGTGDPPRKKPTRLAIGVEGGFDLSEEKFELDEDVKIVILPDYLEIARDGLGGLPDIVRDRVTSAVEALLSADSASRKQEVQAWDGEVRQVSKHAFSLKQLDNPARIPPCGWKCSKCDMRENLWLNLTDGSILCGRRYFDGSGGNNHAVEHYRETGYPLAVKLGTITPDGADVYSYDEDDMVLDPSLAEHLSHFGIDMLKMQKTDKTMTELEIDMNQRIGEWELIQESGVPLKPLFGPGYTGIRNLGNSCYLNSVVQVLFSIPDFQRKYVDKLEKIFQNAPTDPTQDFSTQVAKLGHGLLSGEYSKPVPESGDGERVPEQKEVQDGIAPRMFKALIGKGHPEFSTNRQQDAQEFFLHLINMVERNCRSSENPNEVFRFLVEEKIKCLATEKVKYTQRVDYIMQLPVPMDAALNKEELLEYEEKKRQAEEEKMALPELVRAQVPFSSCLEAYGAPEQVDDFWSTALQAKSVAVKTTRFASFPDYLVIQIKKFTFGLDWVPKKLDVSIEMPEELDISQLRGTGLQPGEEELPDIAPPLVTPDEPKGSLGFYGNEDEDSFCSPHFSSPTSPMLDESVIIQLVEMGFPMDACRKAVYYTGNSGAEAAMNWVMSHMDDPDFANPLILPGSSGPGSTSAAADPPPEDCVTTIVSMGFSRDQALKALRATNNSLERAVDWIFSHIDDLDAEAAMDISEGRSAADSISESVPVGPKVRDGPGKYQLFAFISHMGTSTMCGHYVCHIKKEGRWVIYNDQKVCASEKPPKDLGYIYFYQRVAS

Assays:
Test in all cases: cell-based or functional assay
[1] = molecular target: Ubiquitin carboxyl-terminal hydrolase 8 (UniProt P40818)
[2] = molecular target: Ubiquitin carboxyl-terminal hydrolase 2 (UniProt O75604)
[3] = molecular target: Ubiquitin carboxyl-terminal hydrolase 5 (UniProt P45974)

Percentage inhibition (%), reference at 1 µM [1]: 73%
Percentage inhibition (%), reference at 1 µM [2]: 91%
Percentage inhibition (%), reference at 1 µM [3]: 84%
Substance: Ub-Aldehyde (from UniProt P0CG48 1-76)
